Reference: ChEMBL document CHEMBL3396953, “Design, synthesis and biological evaluation of a class of bioisosteric oximes of the novel dual peroxisome proliferator-activated receptor α/γ ligand LT175” (Eur J Med Chem, 2015)
Calls of active or inactive are those of the source. No cut-off for these calls is given here.

Molecular target: T1, Peroxisome proliferator-activated receptor alpha (Homo sapiens) (UniProt Q07869)
T1 sequence (whole entry): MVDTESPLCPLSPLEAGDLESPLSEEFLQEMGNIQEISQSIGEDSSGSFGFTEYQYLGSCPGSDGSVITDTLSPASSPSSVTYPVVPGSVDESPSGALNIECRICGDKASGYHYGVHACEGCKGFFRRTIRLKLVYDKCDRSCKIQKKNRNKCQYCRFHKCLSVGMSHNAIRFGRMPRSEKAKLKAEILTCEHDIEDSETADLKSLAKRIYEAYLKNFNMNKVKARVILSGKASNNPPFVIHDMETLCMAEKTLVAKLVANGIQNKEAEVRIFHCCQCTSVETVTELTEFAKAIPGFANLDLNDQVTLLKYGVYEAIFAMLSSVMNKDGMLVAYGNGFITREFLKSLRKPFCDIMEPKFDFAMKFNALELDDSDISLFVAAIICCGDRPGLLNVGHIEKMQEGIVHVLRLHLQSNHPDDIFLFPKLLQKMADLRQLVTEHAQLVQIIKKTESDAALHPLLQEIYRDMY
Assay: Agonist activity at GAL4-DNA binding domain fused human PPARalpha ligand binding domain expressed in human HepG2 cells assessed as receptor transactivation incubated for 20 hrs by luciferase reporter gene assay relative to Wy-14,643
Type: cell-based

CCCCCCCO/N=C/c1ccc(OC(Cc2ccccc2)C(=O)O)cc1 (racemic)
Emax: inactive
